This is a selection; strong and weak results do not stand in their true shares. Some salts or complexes appear as unconnected parts, following the source record. Calls of active or inactive are those of the source.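 Rule for the calls: active = activation of at least 8% versus controls, or a plate z-score of at least 8; inactive = the rest.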

This test in a line: compounds raising alpha-dystroglycan glycosylation – uHTS, Pro5-aDG cells, AlphaScreen, primary screen (AID 624168).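 Note: Pro5 are CHO cells carrying HIG-tagged alpha-DG that lacks glycosylation.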 The settings on record: alpha-DG glycosylation AlphaScreen (IIH6), at 10 µM, stronger effect = higher value, 0% Pro5, 100% B10-LARGE cell signal. (Alpha assays give light when donor and acceptor beads are brought close together.)
Turning to `CP(=O)(OC12CC3CC(CC(C3)C1)C2)OC12CC3CC(CC(C3)C1)C2`, the activation is inactive: 0.2%.
With `CCOC(=O)c1ccc(NP(C)(=O)Oc2ccc(Cl)cc2)cc1` (stereo not drawn), the activation was inactive: 0%.
`CCCCCCCCCCCCCCCC1C[N+](C)(C)CCOP(C)(=O)O1` (stereo not drawn): the activation is inactive: 0.4%.
The value for `CP(=O)(Nc1ccc(Cl)cc1Cl)Oc1ccccc1` (stereo not drawn) was inactive: 1%; that for `CP(=O)(OCCOc1ccccc1)OCCOc1ccccc1` was inactive: -0.1%; that for `COc1ccc(OP(C)(=O)Nc2ccccc2Br)cc1` (stereo not drawn) was inactive: 0.1%.
As for `COc1ccccc1OP(C)(=O)Nc1ccc(C)c(C)c1` (stereo not drawn), the figure is inactive: 0.1%; as for `Cc1cc(C)cc(OP(C)(=O)Nc2cccc(C(F)(F)F)c2)c1` (stereo not drawn), inactive: 1.3%.
As for `O=C1C(O)=C([N+](=O)[O-])C(=O)C(O)=C1[N+](=O)[O-]`, the figure is inactive: 0.1%.
As for `CCc1ccc(OP(C)(=O)O)cc1`, the activation was inactive: 0.4%.
As for `COc1ccccc1OP(C)(=O)Nc1ccc(C)cc1C` (stereo not drawn), the figure is inactive: -0.1%.
As for `CP(=O)(Nc1ccccn1)Oc1ccccc1` (stereo not drawn), the activation was inactive: -0.2%.
In the case of `Cc1c(NP(C)(=O)Oc2ccc(C(C)C)cc2)c(=O)n(-c2ccccc2)n1C` (stereo not drawn), the activation was inactive: -0.2%.
As for `O=[N+]([O-])c1cc([N+](=O)[O-])c(Nc2ccccn2)c([N+](=O)[O-])c1`, the figure is active: 12.4%; as for `CN(C)CCOC(=O)C(O)(c1ccccc1)C1CCCC1` (stereo not drawn), inactive: 0%.
The value for `COc1ccc(OP(C)(=O)Nc2ccccn2)cc1` (stereo not drawn) was inactive: -0.1%.
As for `COc1ccccc1OP(C)(=O)Nc1ccc(Br)cc1` (stereo not drawn), the figure is inactive: -0.1%.
As to `COc1ccc2c(c1O)-c1c(O)c(OC)cc3c1[C@H](C2)[N+](C)(C)CC3.O=[N+]([O-])c1cc([N+](=O)[O-])c([O-])c([N+](=O)[O-])c1[O-]`, the activation was inactive: 0.2%.
The value for `O=C(OCCN1CCN(CCOCc2ccccc2)CC1)C(O)(c1ccccc1)c1ccccc1` was inactive: 0.2%; that for `O=C(OC1CN2CCC1CC2)c1ccc([N+](=O)[O-])cc1` (stereo not drawn) was inactive: 0.1%.
Turning to `CC(C)c1ccc(OP(C)(=O)Nc2ccc(SC(F)(F)F)cc2)cc1` (stereo not drawn), the activation is inactive: 0.5%.
The value for `CP(=O)(Nc1ccccc1F)Oc1ccccc1` (stereo not drawn) was inactive: -0.1%; that for `O=[N+]([O-])c1cc([N+](=O)[O-])c(Nc2ccc(Cl)cc2)c([N+](=O)[O-])c1` was inactive: -0.7%.
The value for `CCCCCOc1ccc(NP(C)(=O)Oc2ccc(Cl)cc2Cl)cc1` (stereo not drawn) was inactive: 0.2%; that for `O=[N+]([O-])c1cc([N+](=O)[O-])c(OC2CCCCC2O)c([N+](=O)[O-])c1` (stereo not drawn) was inactive: 0.1%.
As for `CP(=O)(Nc1ccccc1)Oc1ccc(F)cc1` (stereo not drawn), the figure is inactive: 0%.
With `CCN(CC)CCCOC(=O)C(O)(c1ccccc1)C1CCCCC1` (stereo not drawn), the activation is inactive: 0.1%.
The value for `Cc1c([N+](=O)[O-])cc([N+](=O)[O-])c(Br)c1[N+](=O)[O-]` was inactive: 0.5%; that for `COc1ccc(OP(C)(=O)Nc2ccc(SC(F)(F)F)cc2)cc1` (stereo not drawn) was inactive: 0%.
The value for `CCOC(=O)c1ccc(NP(C)(=O)Oc2ccc(F)cc2)cc1` (stereo not drawn) was inactive: 0.1%; that for `CCN(CC)CCCNc1ccccc1[N+](=O)[O-].O=[N+]([O-])c1cc([N+](=O)[O-])c(O)c([N+](=O)[O-])c1` was inactive: -0.2%; that for `Cc1c(C(c2ccc3c(c2)OCO3)c2c(C)n(C)n(-c3ccccc3)c2=O)c(=O)n(-c2ccccc2)n1C.O=[N+]([O-])c1cc([N+](=O)[O-])c(O)c([N+](=O)[O-])c1` was inactive: -0.1%.
As for `O=[N+]([O-])c1cc([N+](=O)[O-])c(NCC2CCS(=O)(=O)C2)c([N+](=O)[O-])c1` (stereo not drawn), the activation is inactive: 2%.
For the compound `Cc1cc(-c2cccc3ccccc23)c(C)cn1.O=[N+]([O-])c1cc([N+](=O)[O-])c(O)c([N+](=O)[O-])c1`, the activation is inactive: 0.1%.
As to `O=[N+]([O-])c1ccc(OP2(=O)COCCO2)cc1` (stereo not drawn), the activation is inactive: -0.2%.
The value for `COc1ccc(NP(C)(=O)Oc2ccccc2OC)cc1` (stereo not drawn) was inactive: -0.1%; that for `CN(C)CCOC(=O)C(O)(c1ccccc1)C1CCCCC1` (stereo not drawn) was inactive: 0%; that for `COc1ccc(OP(C)(=O)Nc2cccc(Br)c2)cc1` (stereo not drawn) was inactive: 0.3%.
With `O=[N+]([O-])c1cc([N+](=O)[O-])c(C(F)(F)F)c([N+](=O)[O-])c1O`, the activation was inactive: 0%.
As for `Cc1ccccc1NP(C)(=O)Nc1ccccc1C`, the figure is inactive: -0.2%; as for `CP(=O)(Nc1ccc2c(c1)OCCO2)Oc1ccccc1` (stereo not drawn), inactive: 0.1%.
With `CCOP(C)(=S)SCC(=O)NC(C)(CC)C(=O)O` (stereo not drawn), the activation was inactive: -0.2%.
Consider `CP(=O)(Nc1ccc(SC(F)(F)F)cc1)Oc1ccc(F)cc1` (stereo not drawn), for which the activation was inactive: 0.1%.

Source of the values: PubChem BioAssay AID624168 (Sanford-Burnham Center for Chemical Genomics, 2012).
